{
  "source": "patent US6635771B2",
  "about": "“N-benzhydryl indole compounds” (Wyeth, priority 2001, dated 2003)",
  "data": [
    {"target": "T1, cPLA2 (Homo sapiens, UniProt P47712)", "T1 sequence (P47712 1-749)": "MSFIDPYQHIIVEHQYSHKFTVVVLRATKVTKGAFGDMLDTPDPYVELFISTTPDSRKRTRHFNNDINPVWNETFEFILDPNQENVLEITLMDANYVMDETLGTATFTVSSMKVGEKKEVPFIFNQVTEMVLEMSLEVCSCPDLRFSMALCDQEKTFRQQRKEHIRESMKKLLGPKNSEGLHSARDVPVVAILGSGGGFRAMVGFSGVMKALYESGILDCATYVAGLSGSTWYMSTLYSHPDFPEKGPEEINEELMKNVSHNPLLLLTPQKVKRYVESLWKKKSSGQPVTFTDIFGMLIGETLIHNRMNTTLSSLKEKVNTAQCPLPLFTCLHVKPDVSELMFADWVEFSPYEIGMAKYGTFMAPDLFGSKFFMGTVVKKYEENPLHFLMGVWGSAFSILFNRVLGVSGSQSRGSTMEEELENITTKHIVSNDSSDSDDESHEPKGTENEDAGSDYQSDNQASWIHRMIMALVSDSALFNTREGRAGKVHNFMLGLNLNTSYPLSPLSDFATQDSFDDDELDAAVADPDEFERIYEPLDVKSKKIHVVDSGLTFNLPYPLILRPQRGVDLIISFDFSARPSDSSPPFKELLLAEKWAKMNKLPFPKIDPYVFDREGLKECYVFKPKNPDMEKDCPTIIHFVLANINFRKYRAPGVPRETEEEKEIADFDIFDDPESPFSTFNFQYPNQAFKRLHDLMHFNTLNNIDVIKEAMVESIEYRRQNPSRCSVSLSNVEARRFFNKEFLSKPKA", "assay": "Coumarine Assay", "type": "biochemical", "conditions": "60 μM 7-hydroxycoumarinyl 6-heptenoate substrate, 4 μg cPLA2, pH 7.5, fluorescence ex 360 nm / em 460 nm; read-out: Coumarin IC50", "units": {"IC50": "µM"}, "values": [
      {"smiles": "O=C(O)c1ccc(OCCc2c(CCNS(=O)(=O)c3ccccc3)n(C(c3ccccc3)c3ccccc3)c3ccc(Cl)cc23)cc1", "note": "[Example 46, 4-[2-(1-benzhydryl-5-chloro-2-{2-[(phenylsulfonyl)amino]ethyl}-1H-indol-3-yl]ethoxy}benzoic acid]", "IC50": 4.8},
      {"smiles": "O=C(O)c1ccc(OCCc2c(CCNS(=O)(=O)Cc3cc(Cl)cc(Cl)c3)n(C(c3ccccc3)c3ccccc3)c3ccc(Cl)cc23)cc1", "note": "[Example 11, 4-{2-[1-Benzhydryl-5-chloro-2-(2-{[(3,5-dichlorobenzyl)sulfonyl]amino}-ethyl)-1H-indol-3-yl]ethoxy}benzoic acid]", "IC50": 0.45},
      {"smiles": "O=C(O)c1ccc(OCCc2c(CCNS(=O)(=O)Cc3ccc(Cl)c(Cl)c3)n(C(c3ccccc3)c3ccccc3)c3ccc(Cl)cc23)cc1", "note": "[Example 10, 4-{2-[1-Benzhydryl-5-chloro-2-(2-{[(3,4-dichlorobenzyl)sulfonyl]amino}-ethyl)-1H-indol-3-yl]ethoxy}benzoic acid]", "IC50": 0.57},
      {"smiles": "O=C(O)c1ccc(OCCc2c(CCNS(=O)(=O)Cc3ccccc3)n(C(c3ccccc3)c3ccccc3)c3cc(Cl)ccc23)cc1", "note": "[Example 105, 4-{2-[1-Benzhydryl-6-chloro-2-(2-phenylmethanesulfonylamino-ethyl)-1H-indol-3-yl]-ethoxy}-benzoic acid]", "IC50": 0.65},
      {"smiles": "O=C(O)c1ccc(OCCc2c(CCNS(=O)(=O)Cc3ccc(Cl)cc3)n(C(c3ccccc3)c3ccccc3)c3ccc(Cl)cc23)cc1", "note": "[Example 15, 4-{2-[1-Benzhydryl-5-chloro-2-(2-{[(4-chlorobenzyl)sulfonyl]amino}-ethyl)-1H-indol-3-yl]ethoxy}benzoic acid]", "IC50": 0.63},
      {"smiles": "CS(=O)(=O)NCCc1c(CCOc2ccc(C(=O)O)cc2)c2cc(Cl)ccc2n1C(c1ccccc1)c1ccccc1", "note": "[Example 45, 4-[2-(1-benzhydryl-5-chloro-2-(2-[(methylsulfonyl)amino]ethyl)-1H-indol-3-yl]ethoxy}benzoic acid]", "IC50": 4.7}
    ]}
  ]
}
